Z-score data for 37 compounds are collected here from PubChem BioAssay AID488969 (Vanderbilt High Throughput Screening Facility, 2010).

Protein sequences, listed by entry. Tags and fused reporters are not part of them.
UniProt P70579, whole entry: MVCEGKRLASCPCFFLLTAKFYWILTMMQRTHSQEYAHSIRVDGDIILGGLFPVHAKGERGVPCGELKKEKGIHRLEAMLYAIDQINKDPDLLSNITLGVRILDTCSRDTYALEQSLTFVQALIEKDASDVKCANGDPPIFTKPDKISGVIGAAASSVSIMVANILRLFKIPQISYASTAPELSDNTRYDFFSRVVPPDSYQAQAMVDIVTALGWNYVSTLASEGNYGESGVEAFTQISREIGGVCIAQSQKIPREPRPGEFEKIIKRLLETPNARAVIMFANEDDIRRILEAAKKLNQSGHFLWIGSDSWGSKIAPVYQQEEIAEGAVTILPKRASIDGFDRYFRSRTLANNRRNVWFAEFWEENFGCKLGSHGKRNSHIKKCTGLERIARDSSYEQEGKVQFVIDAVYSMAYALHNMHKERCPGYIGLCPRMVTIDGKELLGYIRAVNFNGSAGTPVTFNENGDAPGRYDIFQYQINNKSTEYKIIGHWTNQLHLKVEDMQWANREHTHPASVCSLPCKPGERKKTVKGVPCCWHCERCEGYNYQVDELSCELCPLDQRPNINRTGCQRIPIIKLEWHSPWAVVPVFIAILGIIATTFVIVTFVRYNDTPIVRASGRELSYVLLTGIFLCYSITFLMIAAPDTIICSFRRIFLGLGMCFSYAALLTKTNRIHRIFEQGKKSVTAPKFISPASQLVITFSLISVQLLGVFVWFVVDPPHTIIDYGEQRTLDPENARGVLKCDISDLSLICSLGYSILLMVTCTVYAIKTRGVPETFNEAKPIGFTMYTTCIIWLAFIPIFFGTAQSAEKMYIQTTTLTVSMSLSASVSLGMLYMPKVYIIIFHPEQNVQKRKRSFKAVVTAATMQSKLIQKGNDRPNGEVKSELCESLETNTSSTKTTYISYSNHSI

SMILES strings stand for the structures. Only a part is listed here, and it is no random draw.

In the assay the target is Metabotropic glutamate receptor 8 (Rattus norvegicus) (UniProt P70579). In words: rat mGluR8 modulators via GIRK flux, primary screen, cell-based, thallium flux, HTS (AID 488969). The settings on record: HEK293 rat mGluR8, GIRK (G protein-gated inwardly rectifying potassium channel) thallium flux, FluoZin2; at 10 µM; stronger effect = higher value; submaximal glutamate (EC20) added with thallium.
As to `CCOC(=O)c1ccc(NP(C)(=O)Oc2ccc(OC)cc2)cc1` (configuration not stated), the z-score was -0.108.

On to `CP(=O)(Nc1ccccn1)Oc1ccc(Cl)cc1` (configuration not stated), for which the z-score is -0.189.

`Cc1cccc(C)c1OP(C)(=O)Nc1ccc(SC(F)(F)F)cc1` (configuration not stated) gave a z-score of 0.968.

As to `Cc1cc(C)cc(OP(C)(=O)Nc2ccc(SC(F)(F)F)cc2)c1` (configuration not stated), the z-score is -0.0619.

Consider `CP(=O)(NC(=O)Nc1ccccc1)Oc1ccccc1` (configuration not stated), for which the z-score was determined as 0.339.

On to `CP(=S)(Nn1cnnc1)Oc1ccccc1` (configuration not stated), for which the z-score is -0.226.

With `COc1ccc(OP(C)(=O)Nc2cccc(F)c2)cc1` (configuration not stated), the z-score is -0.518.

As to `CC(C)(C)c1ccc(OP(C)(=O)Nc2ccc(SC(F)(F)F)cc2)cc1` (configuration not stated), the z-score is -0.327.

On to `Cc1ccc(C)c(NP(C)(=O)Oc2ccccc2)c1` (configuration not stated), for which the z-score was -0.0106.

Compound `Cc1cc(C)cc(OP(C)(=O)Nc2ccccn2)c1` (configuration not stated) registered a z-score of 0.226.

As to `CCOC(=O)c1ccc(NP(C)(=O)Oc2cc(C)cc(C)c2)cc1` (configuration not stated), the z-score was -0.356.

`Cc1cc(C)cc(OP(C)(=O)Nc2ccc(C)cc2C)c1` (configuration not stated) returned a z-score of 0.074.

As to `CC1=NCCc2c1[nH]c1ccccc21.O=[N+]([O-])c1cc([N+](=O)[O-])c(O)c([N+](=O)[O-])c1`, the z-score is -0.356.

With `COc1ccccc1OP(C)(=O)Nc1c(C)cccc1C` (configuration not stated), the z-score was -0.15.

`CN1CCCCC1COC(=O)C1(O)c2ccccc2CCc2ccccc21` (configuration not stated) had a z-score of 0.653.

In turn, `CP(=O)(Nc1ccc2c(c1)OCCO2)Oc1ccccc1` (configuration not stated) registered a z-score of 0.864.

Take `CCOP(C)(=S)SCC(=O)NC(C)(CC)C(=O)O` (configuration not stated): the z-score stood at 0.106.

On to `COc1ccc(OP(C)(=O)Nc2cccc(Br)c2)cc1` (configuration not stated), for which the z-score is 0.0233.

With `CN(C)CCOC(=O)C(O)(c1ccccc1)C1CCCCC1` (configuration not stated), the z-score was -0.0349.

`CCN(CC)CCCOC(=O)C(O)(c1ccccc1)C1CCCCC1` (configuration not stated) yielded a z-score of 0.464.

In turn, `CP(=O)(Nc1ccccc1)Oc1ccc(F)cc1` (configuration not stated) showed a z-score of 0.00465.

`Cc1c(NP(C)(=O)Oc2ccc(C(C)C)cc2)c(=O)n(-c2ccccc2)n1C` (configuration not stated) gave a z-score of 0.103.

With `COc1ccccc1OP(C)(=O)Nc1ccc(C)cc1C` (configuration not stated), the z-score is -0.243.

For `CP(=O)(Nc1ccccn1)Oc1ccccc1` (configuration not stated), the z-score was -0.0546.

`CCc1ccc(OP(C)(=O)O)cc1`: the z-score was -0.022.

For the compound `COc1ccc(OP(C)(=O)Nc2ccccn2)cc1` (configuration not stated), the z-score was -0.418.

In the case of `CN(C)CCOC(=O)C(O)(c1ccccc1)C1CCCC1` (configuration not stated), the z-score is -0.0717.

In turn, `Cc1nc2ccc3ccccc3c2o1.O=[N+]([O-])c1cc([N+](=O)[O-])c(O)c([N+](=O)[O-])c1` came in with a z-score of 0.66.

For `COc1ccccc1OP(C)(=O)Nc1ccc(C)c(C)c1` (configuration not stated), the z-score is -0.488.

On to `COc1ccc(OP(C)(=O)Nc2ccccc2Br)cc1` (configuration not stated), for which the z-score was -0.615.

On to `CP(=O)(OC12CC3CC(CC(C3)C1)C2)OC12CC3CC(CC(C3)C1)C2`, for which the z-score is -0.339.

For `CC(C)(C)c1ccc(OP(C)(=O)O)cc1`, the z-score was -0.103.

On to `CP(=O)(Nc1ccc(Cl)cc1)Oc1ccc(F)cc1` (configuration not stated), for which the z-score is -0.325.

In turn, `COc1ccc(OP(C)(=O)Nc2ccc(Br)cc2)cc1` (configuration not stated) yielded a z-score of 0.238.

For `CCN(CC)CC(O)COC(=O)C(O)(c1ccccc1)C1CCCCC1` (configuration not stated), the z-score is -0.214.

The compound `COc1ccccc1OP(C)(=O)Nc1c(C)n(C)n(-c2ccccc2)c1=O` (configuration not stated) showed a z-score of 0.221.

As for `CP(=O)(Oc1ccccc1)N1CCOC1=O` (configuration not stated), the z-score is -0.0795.
